Data: patent US20230158157A1, “POTENT AND SELECTIVE DEGRADERS OF ALK” (DANA-FARBER CANCER INSTITUTE, INC., priority 2020, published 2023)
Where two headings read alike, the source gives them in different places.

Protein sequences, listed by entry. Tags and fused reporters are not part of them. Chains listed by the source or under a name are the forms on record and can include a tag or linker.
UniProt Q9UM73, with tags, fused parts or gaps: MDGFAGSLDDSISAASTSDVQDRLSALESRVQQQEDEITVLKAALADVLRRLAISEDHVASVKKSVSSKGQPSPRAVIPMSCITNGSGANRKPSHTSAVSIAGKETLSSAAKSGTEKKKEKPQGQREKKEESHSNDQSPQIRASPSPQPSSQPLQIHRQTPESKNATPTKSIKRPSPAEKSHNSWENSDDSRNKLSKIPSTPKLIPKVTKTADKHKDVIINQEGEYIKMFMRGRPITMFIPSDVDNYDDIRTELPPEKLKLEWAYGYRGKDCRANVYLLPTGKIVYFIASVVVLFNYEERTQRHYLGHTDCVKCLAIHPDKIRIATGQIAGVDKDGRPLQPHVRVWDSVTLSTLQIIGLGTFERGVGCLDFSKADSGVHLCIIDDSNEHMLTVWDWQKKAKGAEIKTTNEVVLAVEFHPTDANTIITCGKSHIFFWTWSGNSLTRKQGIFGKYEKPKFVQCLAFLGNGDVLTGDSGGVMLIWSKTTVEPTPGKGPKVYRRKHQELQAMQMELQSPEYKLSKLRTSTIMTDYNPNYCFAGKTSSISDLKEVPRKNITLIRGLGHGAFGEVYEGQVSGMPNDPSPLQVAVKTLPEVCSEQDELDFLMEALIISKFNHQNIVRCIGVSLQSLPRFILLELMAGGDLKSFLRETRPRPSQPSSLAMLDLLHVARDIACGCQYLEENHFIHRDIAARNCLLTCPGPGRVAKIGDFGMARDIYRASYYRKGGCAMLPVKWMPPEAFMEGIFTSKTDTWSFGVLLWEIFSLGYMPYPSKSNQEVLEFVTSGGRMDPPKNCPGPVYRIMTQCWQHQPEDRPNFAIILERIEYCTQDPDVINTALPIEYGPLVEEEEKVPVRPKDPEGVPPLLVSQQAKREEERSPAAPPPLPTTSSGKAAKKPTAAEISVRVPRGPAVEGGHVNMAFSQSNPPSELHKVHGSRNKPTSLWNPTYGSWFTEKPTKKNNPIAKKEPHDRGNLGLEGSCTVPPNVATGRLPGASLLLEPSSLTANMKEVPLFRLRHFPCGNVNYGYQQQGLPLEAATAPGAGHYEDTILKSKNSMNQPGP

Target: T1, EML4-ALK (Homo sapiens, UniProt Q9UM73)
T1 construct: endogenous in cells; host or cells: H3122 (NSCLC), single-cell clone after CRISPR knock-in of HiBit; the other entry of the earlier key: EML4 (Q9HC35, Echinoderm microtubule-associated protein-like 4)
Test: EML4-ALK HiBit degradation assay in CRISPR-tagged H3122 cells (Nano-Glo HiBit Lytic Detection)
Type: cell-based
Settings: 16 hours
Experimental: (§1) NSCLC cell line H3122 was subjected to CRISPR to express EML4-ALK with HiBit-tag on its c-terminal. Single-cell clone was selected and expanded for the following assays that monitor endogenous EML4-ALK level in high throughput manner. Cells were seeded in 384-well white Tissue-culture plates at 3000 cells/well for 8 hours. […] HiBit signal was assessed using Nano-Glo® HiBit Lytic Detection System (Promega™). Degrader-treated was normalized by DMSO-treated controls and DC50 and Dmax were generated by GraphPad Prism® 8.0.
as §1, with “its c-terminus. A single-cell” for “its c-terminal. Single-cell”, “Degrader-treated cells were” for “Degrader-treated was”
as §1, with “its C-terminus. A single-cell” for “its c-terminal. Single-cell”, “Degrader-treated cells were” for “Degrader-treated was”

Dmax (NCI-H3122, Table 3, H3122 cells) | DC50 (read-out: ALK Degradation (H3122 cells) DC50, Table 3, H3122 cells) | Compound | DC50 (Table 2, first DC50 column, H3122 EML4-ALK-HiBit, read-out: Degradation DC50)
93% | 17 nM | COc1cc(CCNCCCCCC#Cc2ccc3c(c2)CN(C2CCC(=O)NC2=O)C3=O)c(C)cc1Nc1ncc(Cl)c(Nc2ccccc2S(=O)(=O)C(C)C)n1 (stereo not drawn) [compound 92] | 
 |  | COc1cc(CCNCCCCCC#Cc2cccc3c2C(=O)N(C2CCC(=O)NC2=O)C3=O)c(C)cc1Nc1ncc(Cl)c(Nc2ccccc2P(C)(C)=O)n1 (stereo not drawn) [compound 19, 4-(7-((4-((5-chloro-4-((2-(dimethylphosphoryl)phenyl)amino)pyrimidin-2-yl)amino)-5-methoxy-2-methylphenethyl)amino)hept-1-yn-1-yl)-2-(2,6-dioxopiperidin-3-yl)isoindoline-1,3-dione] | 160 nM
